Reference: patent US20030022820A1, “IN VIVO ACTIVATION OF TUMOR-SPECIFIC CYTOTOXIC T CELLS” (priority 1995, published 2003)

Sequences of proteins named here, by UniProt entry; tags and fusion partners are left off. A change or cut given only in a name is not applied to a line headed by its entry.
UniProt P01901: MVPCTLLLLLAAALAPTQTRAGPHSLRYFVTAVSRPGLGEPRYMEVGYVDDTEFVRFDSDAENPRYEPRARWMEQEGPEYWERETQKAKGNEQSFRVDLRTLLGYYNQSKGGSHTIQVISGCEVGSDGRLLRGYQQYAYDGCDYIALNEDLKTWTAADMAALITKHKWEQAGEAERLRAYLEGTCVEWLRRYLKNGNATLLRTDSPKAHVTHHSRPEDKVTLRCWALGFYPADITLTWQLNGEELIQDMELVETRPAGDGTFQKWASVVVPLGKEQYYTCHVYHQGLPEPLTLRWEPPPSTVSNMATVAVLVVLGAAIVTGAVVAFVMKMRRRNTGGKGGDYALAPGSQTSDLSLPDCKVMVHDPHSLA
UniProt P04439: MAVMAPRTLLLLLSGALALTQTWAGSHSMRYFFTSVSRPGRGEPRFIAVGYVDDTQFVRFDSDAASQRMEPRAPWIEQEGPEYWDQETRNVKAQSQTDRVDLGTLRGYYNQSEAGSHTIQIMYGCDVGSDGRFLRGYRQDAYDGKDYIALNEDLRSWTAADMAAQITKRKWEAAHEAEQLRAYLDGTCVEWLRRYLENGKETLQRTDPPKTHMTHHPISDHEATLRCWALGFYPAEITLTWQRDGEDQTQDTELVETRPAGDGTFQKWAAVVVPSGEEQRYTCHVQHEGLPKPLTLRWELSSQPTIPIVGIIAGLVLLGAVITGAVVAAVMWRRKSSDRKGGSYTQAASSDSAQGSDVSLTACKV

Biological target: A2.1/K^b on EA2 target cells (UniProt P01901+P04439, D140Y/D185E/D98H/E176V/G131W/I119V/I121R/I166T/N151K/N90K/Q86G/Q94H/R138H/R169H)
Experiment: Binding inhibition assay: competition with influenza A-specific peptide, read out as lysis by influenza A-specific CTL Clone 12
Parameters: species or system chimeric human-mouse
Conditions: 10 μg test peptide, 0.1 μg influenza A-specific peptide; E:T 0.3:1; 6 hours; low lysis = binding

| Sequence | binding to A2.1/K^b (percent specific lysis of EA2/K^b targets, FIG. 1), in words |
| --- | --- |
| ASNENMETM | highest percent specific lysis |
| RGYVYQGL | highest percent specific lysis |
